US20150352107A1, “ALPHA7 NEURONAL NICOTINIC RECEPTOR LIGAND AND ANTIPSYCHOTIC COMPOSITIONS” (AbbVie Inc., priority 2005, published 2015)

Tested on: Sprague Dawley rats
Details: risperidone 2.5 mg/kg i.p. alone, FIG. 3

Cc1nc2n(c(=O)c1CCN1CCC(c3noc4cc(F)ccc34)CC1)CCCC2 [Risperidone, 3-[2-[4-(6-fluoro-1,2-benzisoxazol-3-yl)-1-piperidinyl]ethyl]-6,7,8,9-tetrahydro-2-methyl-4H-pyrido[1,2-a]pyrimidin-4-one]
catalepsy, alone: evoked cataleptic effects
